Measured values as given in PMC6873218, “Functional Expression of Multidrug Resistance Protein 4 MRP4/ABCC4” (Slas Discovery, 2019).

Sequences of proteins named here, by UniProt entry; tags and fusion partners are left off. A change or cut given only in a name is not applied to a line headed by its entry.
UniProt O15439: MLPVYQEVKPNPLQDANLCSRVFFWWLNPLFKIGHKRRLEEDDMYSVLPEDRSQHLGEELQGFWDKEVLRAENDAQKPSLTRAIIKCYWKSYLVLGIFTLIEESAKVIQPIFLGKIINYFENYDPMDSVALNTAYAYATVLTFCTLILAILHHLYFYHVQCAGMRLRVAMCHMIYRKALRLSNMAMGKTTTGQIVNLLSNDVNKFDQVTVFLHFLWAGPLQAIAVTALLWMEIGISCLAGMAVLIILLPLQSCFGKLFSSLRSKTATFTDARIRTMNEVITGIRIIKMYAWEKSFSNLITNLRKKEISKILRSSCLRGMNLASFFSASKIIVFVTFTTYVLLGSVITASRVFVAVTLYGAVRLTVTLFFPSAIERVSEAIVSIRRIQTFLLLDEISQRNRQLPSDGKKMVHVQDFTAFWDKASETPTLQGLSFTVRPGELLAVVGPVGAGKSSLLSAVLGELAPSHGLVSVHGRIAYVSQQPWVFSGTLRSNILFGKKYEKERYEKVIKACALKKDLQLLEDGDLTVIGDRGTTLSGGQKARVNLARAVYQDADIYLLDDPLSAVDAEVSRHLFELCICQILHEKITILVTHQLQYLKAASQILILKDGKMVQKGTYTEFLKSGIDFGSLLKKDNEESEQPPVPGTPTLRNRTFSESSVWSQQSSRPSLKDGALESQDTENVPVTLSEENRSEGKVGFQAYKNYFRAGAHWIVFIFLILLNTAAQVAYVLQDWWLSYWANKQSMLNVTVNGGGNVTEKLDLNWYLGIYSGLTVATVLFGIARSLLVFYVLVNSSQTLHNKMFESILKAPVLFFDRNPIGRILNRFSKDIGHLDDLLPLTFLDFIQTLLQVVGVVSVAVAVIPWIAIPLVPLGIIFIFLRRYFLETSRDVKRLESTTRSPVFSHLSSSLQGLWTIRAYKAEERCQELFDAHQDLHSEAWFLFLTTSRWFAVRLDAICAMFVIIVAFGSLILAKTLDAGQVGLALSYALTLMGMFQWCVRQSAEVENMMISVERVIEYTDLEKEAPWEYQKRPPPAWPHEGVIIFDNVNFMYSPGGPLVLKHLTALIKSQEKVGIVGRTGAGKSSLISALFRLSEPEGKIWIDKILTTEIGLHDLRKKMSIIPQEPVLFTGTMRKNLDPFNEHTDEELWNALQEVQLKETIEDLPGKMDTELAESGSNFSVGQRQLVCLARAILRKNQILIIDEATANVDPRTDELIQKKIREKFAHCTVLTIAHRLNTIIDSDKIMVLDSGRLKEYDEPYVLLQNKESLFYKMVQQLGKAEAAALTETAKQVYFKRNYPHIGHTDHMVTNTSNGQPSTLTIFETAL

Molecular target: Multidrug resistance protein 4 (MRP4/ABCC4) (Homo sapiens, UniProt O15439)
Assay: biochemical

IC50: 390 nM
Compound: CN(C)C(=O)CCSC(SCCC(=O)O)c1cccc(/C=C/c2ccc3ccc(Cl)cc3n2)c1 (stereo not shown) [MK571]
